Results reported in patent US5514694A, “Peptidyl ketoamides” (Georgia Tech Research Corp, priority 1993, dated 1996).

Sequences of proteins named here, by UniProt entry; tags and fusion partners are left off. Residues count along the entry.
UniProt P08246, 30-267 limits assumed: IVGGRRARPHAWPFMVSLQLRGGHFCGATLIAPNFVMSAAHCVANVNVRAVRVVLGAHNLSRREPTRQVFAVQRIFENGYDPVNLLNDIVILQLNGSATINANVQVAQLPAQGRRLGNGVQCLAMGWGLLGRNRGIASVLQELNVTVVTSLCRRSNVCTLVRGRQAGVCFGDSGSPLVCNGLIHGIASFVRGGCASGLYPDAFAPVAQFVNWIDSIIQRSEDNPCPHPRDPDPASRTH
UniProt P08311, 21-255 limits assumed: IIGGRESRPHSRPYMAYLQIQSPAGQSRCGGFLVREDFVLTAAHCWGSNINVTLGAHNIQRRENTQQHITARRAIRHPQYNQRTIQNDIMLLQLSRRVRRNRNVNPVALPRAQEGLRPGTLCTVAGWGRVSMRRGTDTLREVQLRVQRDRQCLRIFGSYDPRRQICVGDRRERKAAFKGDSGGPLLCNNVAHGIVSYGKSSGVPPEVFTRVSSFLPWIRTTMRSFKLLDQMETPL

Legend:
[1] = target: human leukocyte elastase (HLE) (Homo sapiens, UniProt P08246); assay: HLE inhibition, MeO-Suc-Ala-Ala-Pro-Val-NA hydrolysis; format: biochemical; details: read-out: IC50 HLE; Table 4, Z-Leu--AA--CONH-R
[2] = target: Human leukocyte cathepsin G (Homo sapiens, UniProt P08311); assay: Cathepsin G inhibition, Suc-Val-Pro-Phe-NA hydrolysis; details: read-out: IC50 Cat G; Table 4, Z-Leu--AA--CONH-R

IC50 [1]: 47 µM
IC50 [2]: 162 µM
Compound: CCCCCCCCCCNC(=O)C(=O)[C@H](CC)NC(=O)[C@H](CC(C)C)NC(=O)OCc1ccccc1
